Results: US10172831B2, “Catalytic scavengers of organophosphates to potentiate butyrylcholinesterase (hBChE) as a catalytic bioscavenger and methods for making and using them” (dated 2019)

Protein sequences, listed by entry. Tags and fused reporters are not part of them. Lines headed by an entry give the natural chain unless they say otherwise; changes in a name come on top. Residues count along the entry.
UniProt P06276, 29-602 limits assumed: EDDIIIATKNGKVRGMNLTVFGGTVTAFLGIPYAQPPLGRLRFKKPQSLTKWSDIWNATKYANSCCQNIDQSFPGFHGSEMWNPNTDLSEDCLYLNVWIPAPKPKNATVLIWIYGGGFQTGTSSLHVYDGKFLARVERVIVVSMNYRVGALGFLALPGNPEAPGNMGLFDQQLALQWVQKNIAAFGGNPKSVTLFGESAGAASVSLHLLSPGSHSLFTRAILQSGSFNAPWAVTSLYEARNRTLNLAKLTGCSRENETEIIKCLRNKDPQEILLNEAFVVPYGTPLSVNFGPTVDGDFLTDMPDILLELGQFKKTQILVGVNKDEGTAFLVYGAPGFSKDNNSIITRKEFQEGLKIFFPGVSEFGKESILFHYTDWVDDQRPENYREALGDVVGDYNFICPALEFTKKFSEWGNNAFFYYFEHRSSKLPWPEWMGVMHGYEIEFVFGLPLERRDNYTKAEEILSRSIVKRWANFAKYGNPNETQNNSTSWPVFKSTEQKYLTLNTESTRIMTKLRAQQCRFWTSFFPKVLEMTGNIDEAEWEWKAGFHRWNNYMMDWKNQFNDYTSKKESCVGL
UniProt P22303: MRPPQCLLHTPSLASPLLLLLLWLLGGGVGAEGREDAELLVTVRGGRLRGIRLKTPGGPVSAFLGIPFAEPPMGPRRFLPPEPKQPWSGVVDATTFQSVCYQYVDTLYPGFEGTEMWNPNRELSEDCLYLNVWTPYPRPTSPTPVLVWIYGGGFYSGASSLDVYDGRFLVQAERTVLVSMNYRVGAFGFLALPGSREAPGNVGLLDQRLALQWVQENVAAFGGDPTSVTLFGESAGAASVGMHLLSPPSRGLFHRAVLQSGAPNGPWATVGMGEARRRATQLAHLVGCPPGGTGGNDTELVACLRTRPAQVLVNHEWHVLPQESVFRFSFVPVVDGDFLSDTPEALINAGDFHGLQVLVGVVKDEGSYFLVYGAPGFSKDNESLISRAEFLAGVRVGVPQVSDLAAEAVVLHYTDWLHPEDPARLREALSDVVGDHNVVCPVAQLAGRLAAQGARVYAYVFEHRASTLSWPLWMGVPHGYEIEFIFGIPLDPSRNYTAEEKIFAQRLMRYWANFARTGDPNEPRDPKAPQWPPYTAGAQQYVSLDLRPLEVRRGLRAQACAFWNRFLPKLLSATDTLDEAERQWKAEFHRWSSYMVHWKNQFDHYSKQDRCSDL

Experiments:
OP-hBChE conjugates [1] = target: T1, OP-hBChE conjugates (Homo sapiens, UniProt P06276); assay: Reactivation of OP-hBChE conjugates by 0.67 mM oxime (first-order rate constant kobs); settings: for reactivation rate constants (kobs), on average for the four OP-hBChE conjugates: 0.1 M phosphate buffer pH 7.4 at 37° C., sarin, cyclosarin, VX and paraoxon conjugates
OP-hBChE conjugates [2] = target: T1, OP-hBChE conjugates; settings: cited from earlier work
OP-exposed mice = settings: in vivo; purified hBChE and TAB2OH; cited from earlier work
OP-hAChE conjugates = OP-hAChE conjugates (Homo sapiens, UniProt P22303); assay: Reactivation of OP-hAChE conjugates by 0.67 mM oxime (kobs); settings: sarin, cyclosarin, VX, paraoxon conjugates

Molecule | reactivation rate constants (kobs), on average for the four OP-hBChE conjugates (OP-hBChE conjugates [1]) | other results
CC(C)(C)CCn1ccnc1C=NO | Similarly efficient | 
CC(C)CCn1ccnc1C=NO | drastically reduced | 
C[n+]1ccn(CCCc2ccccc2)c1C=NO.[I-] |  | change of reactivation of cyclosarin-hBChE conjugate, imidazolium vs tertiary analogue (OP-hBChE conjugates [1]; cyclosarin inhibited hBChE): about fifty times
2-trimethylammonio-6-hydroxybenzaldehyde oxime |  | OP-hBChE reactivation potency of reference oximes (OP-hBChE conjugates [2]): relatively low reactivation potency; protective effects of catalytic bioscavenger (hBChE plus oxime) (OP-exposed mice): relatively small; reactivation of OP conjugated hAChEs (OP-hAChE conjugates): poor OP-hAChE reactivator
CC(CCn1ccnc1C=NO)N=[N+]=[N-] (centres unmarked) | counterproductive for reactivation for all OPs | 
[N-]=[N+]=NCCCn1ccnc1C=NO | counterproductive for reactivation for all OPs | 
